Literature values in article PMC6347521 (Current protocols in toxicology, 2018).

Test system: rat
Conditions: ref not given; cited from earlier work

## CC(=O)Nc1ccc(O)cc1 [Acetaminophen]
  LD50 mg/kg (rat oral): 1944 mg/kg
